Values quoted from earlier work in patent US20250120912A1, “SYNERGISTIC NANOMEDICINE DELIVERING TOPOISOMERASE I TOXIN (SN-38) AND INHIBITORS OF POLYNUCLEOTIDE KINASE 3'-PHOSPHATASE (PNKP) FOR ENHANCED TREATMENT OF COLORECTAL CANCER” (THE GOVERNORS OF THE UNIVERSITY OF ALBERTA, priority 2021, published 2025).

System: carboxylesterase
Conditions: literature [6, 7]; cell dependent; cited from earlier work

## CCc1c2c(nc3ccc(OC(=O)N4CCC(N5CCCCC5)CC4)cc13)-c1cc3c(c(=O)n1C2)COC(=O)[C@]3(O)CC [Irinotecan, 7-ethyl-10-[4-(1-piperidino)-1-piperidino] carbonyloxycamptothecin]
  conversion from irinotecan to SN-38: < 10%
